Literature values, collected in PMC9080015 (RSC Advances, 2018).

Biological target: T1, recombinant human CYP1B1 (Homo sapiens, UniProt Q16678)
T1 sequence (Q16678 1-543): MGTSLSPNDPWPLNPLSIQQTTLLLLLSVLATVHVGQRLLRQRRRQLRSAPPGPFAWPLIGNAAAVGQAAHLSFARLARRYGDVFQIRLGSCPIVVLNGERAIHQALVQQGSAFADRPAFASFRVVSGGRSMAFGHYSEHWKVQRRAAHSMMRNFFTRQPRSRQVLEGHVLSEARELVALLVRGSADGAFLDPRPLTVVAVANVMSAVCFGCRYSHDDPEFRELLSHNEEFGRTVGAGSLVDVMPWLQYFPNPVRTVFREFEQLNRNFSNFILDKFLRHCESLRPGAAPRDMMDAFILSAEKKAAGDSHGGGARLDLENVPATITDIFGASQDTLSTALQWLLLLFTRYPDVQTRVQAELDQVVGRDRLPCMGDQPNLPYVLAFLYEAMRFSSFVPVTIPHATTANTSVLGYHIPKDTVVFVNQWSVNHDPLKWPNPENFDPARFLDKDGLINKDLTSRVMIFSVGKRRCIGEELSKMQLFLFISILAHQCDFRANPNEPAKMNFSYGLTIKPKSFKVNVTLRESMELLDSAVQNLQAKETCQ
Conditions: read-out: IC50 CYP1B1; recombinant human enzyme; cited from earlier work

## O=c1cc(-c2ccccc2)oc2c1ccc1ccccc12 [ANF, α-Naphthoflavone]
  IC50: 5 nM
